Only a part is listed here, and it is no random draw. The source made the active and inactive calls.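 The calls were made as follows: active = inhibition above about 50% at the single test dose (limit read from the data); inactive = the rest.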

The chains behind the UniProt entries cited, without tags or fusion partners. Residues count along the entry.
UniProt Q9BQF6, 706-1050 limits assumed: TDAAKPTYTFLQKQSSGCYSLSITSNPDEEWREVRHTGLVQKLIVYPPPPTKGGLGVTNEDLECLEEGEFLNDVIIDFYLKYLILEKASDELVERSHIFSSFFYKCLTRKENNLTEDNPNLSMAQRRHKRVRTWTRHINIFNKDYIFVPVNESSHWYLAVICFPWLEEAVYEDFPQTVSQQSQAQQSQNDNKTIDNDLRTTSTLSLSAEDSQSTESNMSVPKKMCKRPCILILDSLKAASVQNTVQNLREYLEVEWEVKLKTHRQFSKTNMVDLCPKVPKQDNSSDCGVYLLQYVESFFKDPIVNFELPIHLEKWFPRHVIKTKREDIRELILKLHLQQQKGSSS

The test addresses Sentrin-specific protease 7 (Homo sapiens) (UniProt Q9BQF6). Kind of test: blockers of human SENP7 peptidase activity – biochemical, luminescence, uHTS, primary screen (AID 434973).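 Also: plate controls were DMSO with enzyme for no effect and no enzyme buffer wells for full effect.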 To be noted: recombinant SENP7, Z-RLRGG-aminoluciferin luminescence, 40 min; at 5 µM; stronger effect = higher value.
Usually inhibition stands for the change of the read-out against control, counted positive when it falls. As for `CCOC(=O)N1CCC(Nc2ccc(F)cc2)CC1`, the inhibition was inactive: 9.84%.
To `O=C(NCC1(N2CCCCC2)CCCCC1)c1ccc(F)cc1` belongs inactive: -6.23%; to `CCCCOc1ccc(C(=O)NCC2(N3CCOCC3)CCCCC2)cc1`, inactive: -14%.
With `Cc1ccc(OCC(C)C)c(CN(CCCl)CCCl)c1`, the inhibition is inactive: -1.13%.
To `CCOC(=O)N1CCC(Nc2cccc(C)c2)CC1` belongs inactive: 1.66%; to `O=C(NCC1(N2CCCCC2)CCCCC1)c1cccs1`, inactive: 5.04%; to `O=C(NCC1(N2CCCCC2)CCCCC1)c1ccc(=O)[nH]c1`, inactive: -4.83%.
On to `CC(C)(C)OC(=O)N1CCC(N(C(=O)c2ccccc2)c2ccc(F)cc2)CC1`, for which the inhibition was inactive: 3.16%.
For `COc1ccc(C(=O)NCC2(N3CCCCC3)CCCCC2)c(OC)c1OC`, the inhibition is inactive: -4.52%.
Consider `COc1ccc(C(=O)NCC2(N3CCCCC3)CCCCC2)cc1`, for which the inhibition is inactive: 1.86%.
For `CSc1ccccc1C(=O)NCC1(N2CCCCC2)CCCCC1`, the inhibition is inactive: -7.33%.
Consider `O=C(NCC1(N2CCOCC2)CCCCC1)c1cc2ccccc2o1`, for which the inhibition was inactive: 7.04%.
Take `Cc1cc(C)cc(N(C(=O)c2ccccc2)C2CCN(C(=O)OC(C)(C)C)CC2)c1`: the inhibition is inactive: 5.7%.
In the case of `O=C(NCC1(N2CCCCC2)CCCCC1)c1ccc(Cl)nc1`, the inhibition was inactive: -1.07%.
To `CCOC(=O)N1CCC(Nc2ccc(OC)cc2)CC1` belongs inactive: -8.03%; to `COc1ccc(Cl)cc1C(=O)NCC1(N2CCOCC2)CCCCC1`, inactive: 7.04%; to `O=C(OC1CN2CCC1CC2)C1c2ccccc2Oc2ccccc21` (configuration not stated), inactive: 2.5%.
For the compound `N#CC1(Nc2ccccc2)CCN(Cc2ccccc2)CC1`, the inhibition was inactive: 2.67%.
Take `O=C(NCC1(N2CCCCC2)CCCCC1)c1ccc(Cl)s1`: the inhibition was inactive: 8.02%.
To `CN(C)c1cccc(C(=O)NCC2(N3CCCCC3)CCCCC2)c1` belongs inactive: 6.65%; to `COc1ccc(CN(CCCl)CCCl)cc1Cl`, inactive: 3.45%; to `CC(C)c1ccc(NC2CCN(C(=O)OC(C)(C)C)CC2)cc1`, inactive: -3.36%.
Turning to `O=C(NCC1(N2CCOCC2)CCCCC1)c1cc(F)c(F)cc1Cl`, the inhibition was inactive: -6.57%.
As for `COc1cc(OC)c(C(=O)NCC2(N(C)C)CCCCC2)cc1OC`, the inhibition was inactive: -2.76%.
In the case of `O=C(NCC1(N2CCCCC2)CCCCC1)c1cncc(Br)c1`, the inhibition is inactive: 2.48%.
As for `CN1CCC(Nc2cccc(F)c2)CC1`, the inhibition was inactive: -2.5%.
In the case of `O=C(NCC1(N2CCCCC2)CCCCC1)c1ccc(OC(F)F)cc1`, the inhibition was inactive: -1.44%.
As to `CSc1ccc(C(=O)NCC2(N3CCOCC3)CCCCC2)cc1`, the inhibition was inactive: 5.53%.
`O=C(NCC1(N2CCCCC2)CCCCC1)c1cccc([N+](=O)[O-])c1`: the inhibition was inactive: 4.43%.
Take `N#CC1(Nc2ccccc2)CCN(CCc2ccccc2)CC1`: the inhibition was inactive: 1.14%.
For `CCN1CCC(Nc2ccc(Cl)cc2)CC1`, the inhibition was inactive: 1.31%.
Turning to `O=C(NCC1(N2CCCCC2)CCCCC1)c1cccc(C(F)(F)F)c1`, the inhibition was inactive: 4.64%.
Take `CN1CCN(CCOC(=O)C(O)(c2ccccc2)c2ccccc2)CC1`: the inhibition was inactive: -2.12%.
In the case of `CC(C)c1ccc(C(=O)NCC2(N3CCOCC3)CCCCC2)cc1`, the inhibition is inactive: 1.02%.
To `COc1ccc(NC2CCN(C(=O)OC(C)(C)C)CC2)cc1` belongs inactive: 12.3%; to `COc1cc(C(=O)NCC2(N3CCCCC3)CCCCC2)ccc1OC(F)F`, inactive: 5.95%.
To `O=C(NCC1(N2CCOCC2)CCCCC1)c1cc(=O)[nH]c2ccccc12` belongs inactive: -9.29%.

For the origin of these results see PubChem BioAssay AID434973 (Sanford-Burnham Center for Chemical Genomics, 2010).
